Source: ChEMBL document CHEMBL3407489, “Bis-aryl urea derivatives as potent and selective LIM kinase (Limk) inhibitors” (J Med Chem, 2015)

By UniProt entry, the sequences of proteins in these tests, tags left out. Where a name states a change or a piece, a line headed by the entry shows the natural chain unless it says otherwise.
UniProt P53669: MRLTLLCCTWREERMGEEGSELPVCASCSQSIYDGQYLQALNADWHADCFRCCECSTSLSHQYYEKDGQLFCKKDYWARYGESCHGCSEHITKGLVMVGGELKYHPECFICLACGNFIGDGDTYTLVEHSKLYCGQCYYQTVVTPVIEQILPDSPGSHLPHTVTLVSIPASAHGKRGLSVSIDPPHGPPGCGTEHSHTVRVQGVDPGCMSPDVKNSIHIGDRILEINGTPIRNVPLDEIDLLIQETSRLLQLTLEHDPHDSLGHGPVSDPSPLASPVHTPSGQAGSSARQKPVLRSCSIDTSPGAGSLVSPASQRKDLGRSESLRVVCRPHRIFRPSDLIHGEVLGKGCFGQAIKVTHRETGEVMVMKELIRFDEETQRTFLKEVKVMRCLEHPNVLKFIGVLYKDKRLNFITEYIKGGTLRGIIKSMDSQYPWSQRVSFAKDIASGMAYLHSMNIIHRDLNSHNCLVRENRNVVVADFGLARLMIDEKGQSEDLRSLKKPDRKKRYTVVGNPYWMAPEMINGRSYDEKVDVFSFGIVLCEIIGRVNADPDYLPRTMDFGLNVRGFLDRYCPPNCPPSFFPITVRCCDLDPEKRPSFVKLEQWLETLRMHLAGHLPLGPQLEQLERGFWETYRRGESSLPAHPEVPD

Molecular target: LIM domain kinase 1 (Rattus norvegicus, UniProt P53669)
Assay: Inhibition of Limk1 in rat A7r5 cells assessed as reduction in cofilin phosphorylation by Western blot method
Type: cell-based

SMILES | IC50 [µM]
Cc1ccc(N(CCO)C(=O)Nc2ccc(-c3ncnc4[nH]cc(C)c34)cc2)cc1 | 0.19
COc1ccc(N(CCO)C(=O)Nc2ccc(-c3ncnc4[nH]cc(C)c34)cc2)cc1 | 0.73
